Experimental data from US10308689B2, “Dengue virus (DV) polypeptide sequences, T cell epitopes and methods and uses thereof” (LA JOLLA INSTITUTE FOR ALLERGY AND IMMUNOLOGY, priority 2010, dated 2019).

test system: splenic CD8+ T cells from DENV3 (D3S5CX) infected HLA transgenic IFN-α/βR−/− mice; assay: IFNγ ELISPOT, CD8+ T cells of DENV3 (D3S5CX) infected HLA class I transgenic IFN-α/βR−/− mice; assay type: cell-based, mouse; settings: HLA B*4001 transgenic IFN-α/βR−/− mice, day 7 after DENV3 D3S5CX; SFC/10^6 T cells

| Molecule | T cell response [SFC] |
| --- | --- |
| AEQTGVSHNL [NS2B1412-1421] | 362 |
| GEIGAIALDF [NS31598-1607] | 289 |
| CC[C@H](C)[C@H](NC(=O)[C@@H](NC(=O)[C@H](CCC(N)=O)NC(=O)[C@@H](NC(=O)[C@H](CCC(=O)O)NC(=O)[C@H](CCC(=O)O)NC(=O)CN)C(C)C)C(C)C)C(=O)N[C@@H](C)C(=O)N[C@H](C(=O)O)C(C)C [NS31569-1577] | 293 |

Ends that are not written are not given here.
